Our source for the IC50 values is publication PMC10512030, “Prolidase-proline oxidase axis is engaged in apoptosis induction by birch buds flavonol santin in endometrial adenocarcinoma cell line” (Frontiers in Molecular Biosciences, 2023).

Where only a bound is given, the exact number is not on record here.

Format in all cases: cell-based
Experiment [1] deals with cervical adenocarcinoma HeLa cells. The experiment is described as follows: Cell viability neutral red uptake assay, HeLa. Conditions: Homo sapiens, read-out: IC50 values ± SD in neutral red uptake assay.
Experiment [2] has as its system normal fibroblasts (dermal fibroblasts CCD25Sk). The experiment is described as follows: Cell viability neutral red uptake assay, fibroblasts. The settings on record: Homo sapiens, Fibroblast, read-out: IC50 values ± SD in neutral red uptake assay.
The test system of experiment [3] is endometrial adenocarcinoma Ishikawa cells. The experiment is described as follows: Cell viability MTT assay, Ishikawa. The settings on record: Homo sapiens, read-out: IC50 values ± SD in MTT assay. A general note: Tetrazolium dyes change colour on reduction, which living cells bring about.
For experiment [4], the system named is normal fibroblasts (dermal fibroblasts CCD25Sk). The experiment is described as follows: Cell viability MTT assay, fibroblasts. Conditions: Homo sapiens, Fibroblast, read-out: IC50 values ± SD in MTT assay.
Experiment [5] has as its system endometrial adenocarcinoma Ishikawa cells. The experiment is described as follows: Cell viability neutral red uptake assay, Ishikawa. Conditions: Homo sapiens, read-out: IC50 values ± SD in neutral red uptake assay.
Experiment [6] has as its system cervical adenocarcinoma HeLa cells. Kind of experiment: Cell viability MTT assay, HeLa. The settings on record: Homo sapiens, read-out: IC50 values ± SD in MTT assay.

In the case of `COc1cc(O)c2c(=O)c(O)c(-c3ccc(O)cc3)oc2c1` [rhamnocitrin], the IC50 (commonly the concentration that gives 50% inhibition) is above 50 µM in experiment [1] (24 h); 41.2 ± 3.5 µM in experiment [1] (48 h); above 50 µM in experiment [2] (24 h); above 50 µM in experiment [2] (48 h); above 50 µM in experiment [3] (24 h); 42.5 ± 2.6 µM in experiment [3] (48 h). Besides, the half-maximal inhibitory concentration (IC50) in experiment [4] (24 h) is above 50 µM; in experiment [4] (48 h) it was above 50 µM; in experiment [5] (24 h), above 50 µM; in experiment [5] (48 h), 41.7 ± 2.5 µM; in experiment [6] (24 h), above 50 µM; in experiment [6] (48 h) it was 37 ± 2.1 µM.
